IC50 and efflux ratio data for 1 compound are collected here from patent US20230286983A1 (4E Therapeutics, Inc., priority 2020, published 2023).

Sequences of proteins named here, by UniProt entry; tags and fusion partners are left off. A change or cut given only in a name is not applied to a line headed by its entry.
UniProt Q9HBH9: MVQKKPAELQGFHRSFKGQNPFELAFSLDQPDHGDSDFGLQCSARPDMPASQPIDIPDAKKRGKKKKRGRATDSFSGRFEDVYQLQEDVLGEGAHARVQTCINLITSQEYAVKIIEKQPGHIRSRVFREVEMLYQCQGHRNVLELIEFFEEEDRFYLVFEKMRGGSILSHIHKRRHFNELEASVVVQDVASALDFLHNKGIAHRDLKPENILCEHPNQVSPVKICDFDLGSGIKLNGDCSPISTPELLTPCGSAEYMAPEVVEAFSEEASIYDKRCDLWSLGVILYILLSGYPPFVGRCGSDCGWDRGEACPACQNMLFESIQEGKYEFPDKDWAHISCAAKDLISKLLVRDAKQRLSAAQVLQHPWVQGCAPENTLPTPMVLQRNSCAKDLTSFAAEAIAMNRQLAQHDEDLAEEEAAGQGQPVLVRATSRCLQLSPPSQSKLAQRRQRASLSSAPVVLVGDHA
UniProt Q9BUB5: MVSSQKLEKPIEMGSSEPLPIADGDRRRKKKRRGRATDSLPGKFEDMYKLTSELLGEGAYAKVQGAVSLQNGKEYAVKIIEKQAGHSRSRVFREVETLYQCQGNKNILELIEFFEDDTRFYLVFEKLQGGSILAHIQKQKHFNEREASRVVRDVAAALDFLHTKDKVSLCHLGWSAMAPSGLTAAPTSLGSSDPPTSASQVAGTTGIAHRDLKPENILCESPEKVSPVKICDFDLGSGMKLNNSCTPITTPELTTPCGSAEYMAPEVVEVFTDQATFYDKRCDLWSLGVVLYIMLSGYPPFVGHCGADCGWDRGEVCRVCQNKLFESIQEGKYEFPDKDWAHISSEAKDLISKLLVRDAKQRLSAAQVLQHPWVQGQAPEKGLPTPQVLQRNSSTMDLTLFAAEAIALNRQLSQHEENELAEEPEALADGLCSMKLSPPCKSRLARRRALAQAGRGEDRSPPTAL

One series deals with MNK2 (Homo sapiens, UniProt Q9HBH9). Briefly: MNK2 substrate phosphorylation assay. The format is biochemical. The settings on record: recombinant human kinase.
The target of the next series is MNK1 (Homo sapiens, UniProt Q9BUB5). As to the kind of experiment: MNK1 substrate phosphorylation assay. Format: biochemical. The settings on record: recombinant human kinase.
A further series concerns P-gp (human MDR1, ABCB1). Briefly: MDCK-MDR1 permeability (blood brain barrier permeability). The settings on record: dog, MDCK-MDR1, 5 μM; read-out: Efflux ratio (ratio B-A/A-B). The format is in vitro ADME, Canine. The protocol:
In particular, the study was conducted in Madin Darby Canine Kidney (MDCK) cells that express the MDR1 gene (ABCB1) that encodes for the efflux protein, P-gp. MDCK-MDR1 is a stable-transfected cell line originating from MDCK cells, with over-expression of human MDR1 gene. Because MDCK-MDR1 permeability correlates well with brain exposure it is often utilized predictor of blood-brain-barrier penetration.
Apparent permeability (Papp) values are calculated using the following equation: […]
where dQ/dt is the initial rate of amount of test compound transported across cell monolayer, A is the surface area of the filter membrane, and C0 is the initial concentration of the test compound, calculated for each direction using a 4-point calibration curve by LC-MS/MS. Net flux ratio between the two directional transports was calculated by the following equation: […]
where Papp, B−A and Papp, A−B represent the apparent permeability of test compound from the basal to apical and apical to basal side of the cellular monolayer, respectively.

A word on the IC50: it is the concentration that inhibits the measured activity by half. For the compound `Cc1cc(Nc2cc(NC(=O)C3CC3)ncn2)c(=O)n2c1C(=O)NC21CCCC1` [Compound 4ET-03-017, N-(6-((8′-Methyl-1′,5′-dioxo-1′,5′-dihydro-2′H-spiro[cyclopentane-1,3′-imidazo[1,5-a]pyridin]-6′-yl)amino)pyrimidin-4-yl)cyclopropanecarboxamide], the figures for the concentration for half-maximal inhibition (IC50) on MNK2 and on MNK1 were 3 nM and 74.3 nM, respectively. The efflux ratio at 5 μM in the series on P-gp (human MDR1, ABCB1) stood at 3.6.
